Literature values as cited in US20190382462A1, “METHODS AND COMPOSITIONS FOR TREATING HPA HYPERACTIVITY” (priority 2017, published 2019).

By UniProt entry, the sequences of proteins in these tests, tags left out. Residues count along the entry.
UniProt P55899, 24-297 limits assumed, species assumed: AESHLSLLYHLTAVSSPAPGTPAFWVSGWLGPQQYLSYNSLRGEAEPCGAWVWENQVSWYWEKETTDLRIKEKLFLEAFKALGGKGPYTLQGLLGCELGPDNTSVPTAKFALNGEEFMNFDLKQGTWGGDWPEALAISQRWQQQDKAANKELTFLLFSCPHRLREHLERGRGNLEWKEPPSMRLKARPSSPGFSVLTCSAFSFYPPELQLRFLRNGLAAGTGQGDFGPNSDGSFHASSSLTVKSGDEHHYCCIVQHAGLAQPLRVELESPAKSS

Target: FcRn (Homo sapiens, UniProt P55899)

- affinity for FcRn relative to wild type HSA: 12 fold
Substance: K573P mutant of HSA: modified recombinant HSA with improved FcRn binding
